# Tested on: U87MG xenografts
# Assay: Anti-tumor efficacy, U87MG xenograft model
# Type: in vivo, mouse
# Conditions: dose of 20 mg/kg
smiles,measurement,value
"CCC(=O)N1CCN(c2ccc(-n3c(=O)ccc4cnc5ccc(-c6cnc7ccccc7c6)cc5c43)cc2C(F)(F)F)CC1 [Compound 26, 1-(4-(4-propionylpiperazin-1-yl)-3-(trifluoromethyl)phenyl)-9-(quinolin-3-yl)benzo[h][1,6]naphthyridin-2(1H)-one]",efficacy in U87MG xenograft model,efficacious
